Amino acid sequences for entries named in this document (tags omitted). A change or cut given only in a name is not applied to a line headed by its entry.
UniProt O09028: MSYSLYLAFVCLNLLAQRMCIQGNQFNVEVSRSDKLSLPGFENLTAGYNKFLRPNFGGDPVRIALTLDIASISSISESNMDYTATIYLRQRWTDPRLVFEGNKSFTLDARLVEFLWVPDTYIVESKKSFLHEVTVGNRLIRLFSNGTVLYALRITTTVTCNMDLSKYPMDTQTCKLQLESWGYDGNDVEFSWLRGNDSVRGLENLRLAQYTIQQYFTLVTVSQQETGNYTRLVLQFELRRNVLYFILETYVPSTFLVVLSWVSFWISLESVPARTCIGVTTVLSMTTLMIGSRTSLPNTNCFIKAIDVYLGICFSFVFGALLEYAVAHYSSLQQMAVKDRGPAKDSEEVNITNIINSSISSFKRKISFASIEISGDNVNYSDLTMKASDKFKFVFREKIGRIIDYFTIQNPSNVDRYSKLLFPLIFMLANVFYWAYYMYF
UniProt P15431: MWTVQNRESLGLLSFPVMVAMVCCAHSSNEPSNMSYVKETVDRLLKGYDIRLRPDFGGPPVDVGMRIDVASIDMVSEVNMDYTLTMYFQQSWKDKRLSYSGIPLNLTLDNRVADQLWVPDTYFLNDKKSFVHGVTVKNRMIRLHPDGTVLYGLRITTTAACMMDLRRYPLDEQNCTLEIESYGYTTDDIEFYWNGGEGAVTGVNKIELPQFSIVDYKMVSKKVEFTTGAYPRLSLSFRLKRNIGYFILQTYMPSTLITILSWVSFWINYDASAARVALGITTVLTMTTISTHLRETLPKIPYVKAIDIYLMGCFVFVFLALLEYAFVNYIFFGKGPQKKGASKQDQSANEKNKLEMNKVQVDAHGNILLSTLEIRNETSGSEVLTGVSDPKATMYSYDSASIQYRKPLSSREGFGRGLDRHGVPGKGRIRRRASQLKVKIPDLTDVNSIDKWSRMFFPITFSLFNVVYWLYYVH
UniProt P18506: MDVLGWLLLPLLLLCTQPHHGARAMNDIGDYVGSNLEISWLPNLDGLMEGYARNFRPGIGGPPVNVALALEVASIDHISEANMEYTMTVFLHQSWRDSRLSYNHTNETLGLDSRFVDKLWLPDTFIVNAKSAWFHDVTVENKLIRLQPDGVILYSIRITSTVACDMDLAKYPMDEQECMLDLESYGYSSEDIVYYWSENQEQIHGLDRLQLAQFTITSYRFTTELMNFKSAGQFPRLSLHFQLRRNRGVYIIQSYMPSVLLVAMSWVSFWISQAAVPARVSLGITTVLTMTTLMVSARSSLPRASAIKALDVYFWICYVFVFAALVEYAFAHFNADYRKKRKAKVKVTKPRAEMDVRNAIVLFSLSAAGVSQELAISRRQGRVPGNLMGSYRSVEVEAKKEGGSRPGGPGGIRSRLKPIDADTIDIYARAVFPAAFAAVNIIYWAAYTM
UniProt P18508: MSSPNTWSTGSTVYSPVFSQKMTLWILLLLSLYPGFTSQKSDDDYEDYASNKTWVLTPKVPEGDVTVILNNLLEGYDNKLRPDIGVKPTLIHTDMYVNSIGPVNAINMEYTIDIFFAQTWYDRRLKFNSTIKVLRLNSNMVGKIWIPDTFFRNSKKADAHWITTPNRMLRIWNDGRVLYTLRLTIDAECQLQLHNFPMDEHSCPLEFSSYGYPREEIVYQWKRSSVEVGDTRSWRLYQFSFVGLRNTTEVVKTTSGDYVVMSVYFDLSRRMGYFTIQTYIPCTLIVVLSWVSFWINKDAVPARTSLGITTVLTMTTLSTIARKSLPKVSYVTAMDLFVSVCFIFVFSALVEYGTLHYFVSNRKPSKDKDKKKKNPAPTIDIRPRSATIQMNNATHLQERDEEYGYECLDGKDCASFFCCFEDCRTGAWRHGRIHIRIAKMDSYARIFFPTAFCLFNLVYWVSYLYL
UniProt P19969: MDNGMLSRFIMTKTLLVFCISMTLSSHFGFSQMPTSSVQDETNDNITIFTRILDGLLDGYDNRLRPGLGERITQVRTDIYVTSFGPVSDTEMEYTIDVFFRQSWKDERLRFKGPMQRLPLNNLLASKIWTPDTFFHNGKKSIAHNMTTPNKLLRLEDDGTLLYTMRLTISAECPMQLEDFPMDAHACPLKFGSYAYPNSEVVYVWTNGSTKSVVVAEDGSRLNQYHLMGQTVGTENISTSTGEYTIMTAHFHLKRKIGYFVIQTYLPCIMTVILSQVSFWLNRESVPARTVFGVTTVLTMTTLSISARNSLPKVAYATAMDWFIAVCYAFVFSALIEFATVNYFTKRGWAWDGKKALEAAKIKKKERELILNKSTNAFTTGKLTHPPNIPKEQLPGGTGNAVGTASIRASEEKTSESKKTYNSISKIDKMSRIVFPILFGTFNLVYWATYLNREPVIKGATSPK
UniProt P20236: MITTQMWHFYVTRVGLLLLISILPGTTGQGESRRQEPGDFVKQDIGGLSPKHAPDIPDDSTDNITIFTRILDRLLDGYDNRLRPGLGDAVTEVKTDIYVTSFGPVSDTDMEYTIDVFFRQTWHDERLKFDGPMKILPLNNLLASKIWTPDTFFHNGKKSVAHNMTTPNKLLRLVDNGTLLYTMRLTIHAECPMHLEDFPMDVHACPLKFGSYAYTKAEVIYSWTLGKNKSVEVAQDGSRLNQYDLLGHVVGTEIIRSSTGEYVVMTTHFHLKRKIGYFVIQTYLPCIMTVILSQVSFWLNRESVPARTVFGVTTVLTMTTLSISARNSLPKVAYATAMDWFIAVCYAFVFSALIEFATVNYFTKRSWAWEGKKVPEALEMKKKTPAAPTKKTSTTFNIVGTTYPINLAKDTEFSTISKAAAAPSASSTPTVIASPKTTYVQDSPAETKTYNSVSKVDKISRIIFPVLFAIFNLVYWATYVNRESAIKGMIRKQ
UniProt P23574: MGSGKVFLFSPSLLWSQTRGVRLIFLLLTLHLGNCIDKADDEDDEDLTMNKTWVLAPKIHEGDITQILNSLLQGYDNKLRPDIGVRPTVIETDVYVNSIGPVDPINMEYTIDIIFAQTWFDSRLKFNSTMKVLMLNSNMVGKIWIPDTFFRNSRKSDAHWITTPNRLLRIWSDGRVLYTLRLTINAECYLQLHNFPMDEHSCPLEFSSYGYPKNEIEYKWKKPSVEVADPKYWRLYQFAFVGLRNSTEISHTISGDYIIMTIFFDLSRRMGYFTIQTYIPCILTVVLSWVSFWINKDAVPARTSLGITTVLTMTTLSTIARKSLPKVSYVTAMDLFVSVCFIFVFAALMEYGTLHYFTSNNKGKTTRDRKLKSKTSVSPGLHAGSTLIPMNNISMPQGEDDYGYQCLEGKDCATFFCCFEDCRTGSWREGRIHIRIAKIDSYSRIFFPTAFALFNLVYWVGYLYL
UniProt P23576: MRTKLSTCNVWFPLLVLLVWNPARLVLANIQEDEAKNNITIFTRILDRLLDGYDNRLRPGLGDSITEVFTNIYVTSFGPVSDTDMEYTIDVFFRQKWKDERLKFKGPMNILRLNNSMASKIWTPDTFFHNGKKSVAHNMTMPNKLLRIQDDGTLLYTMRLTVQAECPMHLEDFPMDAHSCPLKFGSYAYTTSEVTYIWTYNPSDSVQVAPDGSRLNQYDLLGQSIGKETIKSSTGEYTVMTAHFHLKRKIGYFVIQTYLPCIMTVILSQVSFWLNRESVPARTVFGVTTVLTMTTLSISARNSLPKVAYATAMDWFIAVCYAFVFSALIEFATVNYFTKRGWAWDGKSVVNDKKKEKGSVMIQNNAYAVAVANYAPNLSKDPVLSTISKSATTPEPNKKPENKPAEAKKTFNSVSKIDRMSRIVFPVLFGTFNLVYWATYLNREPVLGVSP
UniProt P28471: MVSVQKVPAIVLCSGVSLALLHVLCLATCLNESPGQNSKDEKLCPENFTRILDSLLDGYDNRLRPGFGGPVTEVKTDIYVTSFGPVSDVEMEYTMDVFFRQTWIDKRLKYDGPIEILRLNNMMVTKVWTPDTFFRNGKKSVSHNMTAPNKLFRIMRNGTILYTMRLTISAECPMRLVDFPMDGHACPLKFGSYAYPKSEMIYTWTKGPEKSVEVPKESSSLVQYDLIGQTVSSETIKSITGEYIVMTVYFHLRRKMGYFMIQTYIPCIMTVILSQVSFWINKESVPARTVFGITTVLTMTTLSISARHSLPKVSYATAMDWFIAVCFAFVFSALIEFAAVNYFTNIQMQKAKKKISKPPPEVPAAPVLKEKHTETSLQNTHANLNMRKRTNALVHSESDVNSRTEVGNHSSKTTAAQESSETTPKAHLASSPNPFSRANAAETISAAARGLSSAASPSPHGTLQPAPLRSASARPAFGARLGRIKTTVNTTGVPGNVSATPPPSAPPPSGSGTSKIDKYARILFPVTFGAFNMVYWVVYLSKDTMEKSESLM
UniProt P28473: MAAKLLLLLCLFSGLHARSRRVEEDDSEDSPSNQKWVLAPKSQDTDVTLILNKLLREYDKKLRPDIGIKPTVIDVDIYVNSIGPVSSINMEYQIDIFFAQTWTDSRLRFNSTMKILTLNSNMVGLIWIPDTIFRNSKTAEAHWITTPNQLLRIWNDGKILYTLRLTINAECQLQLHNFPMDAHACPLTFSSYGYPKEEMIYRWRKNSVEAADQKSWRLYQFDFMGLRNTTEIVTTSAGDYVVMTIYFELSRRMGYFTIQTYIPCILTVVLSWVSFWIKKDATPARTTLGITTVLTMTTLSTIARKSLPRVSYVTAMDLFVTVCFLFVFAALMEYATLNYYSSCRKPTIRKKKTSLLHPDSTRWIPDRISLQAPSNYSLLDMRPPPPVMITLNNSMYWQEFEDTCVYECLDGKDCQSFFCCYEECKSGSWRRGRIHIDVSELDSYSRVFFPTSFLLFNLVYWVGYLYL
UniProt P30191: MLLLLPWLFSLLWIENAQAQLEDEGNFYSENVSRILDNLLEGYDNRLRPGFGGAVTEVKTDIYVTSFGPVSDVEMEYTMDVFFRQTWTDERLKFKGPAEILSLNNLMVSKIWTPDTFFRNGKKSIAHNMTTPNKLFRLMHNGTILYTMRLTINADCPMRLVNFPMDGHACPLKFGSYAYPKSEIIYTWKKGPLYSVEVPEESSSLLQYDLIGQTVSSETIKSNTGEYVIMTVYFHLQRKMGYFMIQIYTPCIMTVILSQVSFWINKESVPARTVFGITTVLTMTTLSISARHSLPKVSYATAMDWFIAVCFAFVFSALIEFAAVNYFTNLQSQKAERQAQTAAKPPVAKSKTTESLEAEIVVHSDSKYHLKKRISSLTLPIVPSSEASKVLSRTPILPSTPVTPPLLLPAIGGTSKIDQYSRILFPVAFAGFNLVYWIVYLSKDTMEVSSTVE
UniProt P62813: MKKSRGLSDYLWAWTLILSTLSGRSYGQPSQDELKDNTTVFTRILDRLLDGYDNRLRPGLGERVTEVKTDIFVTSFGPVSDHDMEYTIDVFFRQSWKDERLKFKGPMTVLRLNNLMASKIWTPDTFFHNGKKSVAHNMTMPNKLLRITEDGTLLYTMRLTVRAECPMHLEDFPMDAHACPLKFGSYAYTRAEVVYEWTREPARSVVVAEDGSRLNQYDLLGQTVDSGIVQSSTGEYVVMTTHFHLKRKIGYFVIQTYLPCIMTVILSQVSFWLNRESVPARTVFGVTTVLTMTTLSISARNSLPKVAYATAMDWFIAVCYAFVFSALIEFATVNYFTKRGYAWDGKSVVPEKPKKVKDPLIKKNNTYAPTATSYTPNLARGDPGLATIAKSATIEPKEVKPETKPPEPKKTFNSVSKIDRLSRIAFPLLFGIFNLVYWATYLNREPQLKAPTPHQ
UniProt P63079: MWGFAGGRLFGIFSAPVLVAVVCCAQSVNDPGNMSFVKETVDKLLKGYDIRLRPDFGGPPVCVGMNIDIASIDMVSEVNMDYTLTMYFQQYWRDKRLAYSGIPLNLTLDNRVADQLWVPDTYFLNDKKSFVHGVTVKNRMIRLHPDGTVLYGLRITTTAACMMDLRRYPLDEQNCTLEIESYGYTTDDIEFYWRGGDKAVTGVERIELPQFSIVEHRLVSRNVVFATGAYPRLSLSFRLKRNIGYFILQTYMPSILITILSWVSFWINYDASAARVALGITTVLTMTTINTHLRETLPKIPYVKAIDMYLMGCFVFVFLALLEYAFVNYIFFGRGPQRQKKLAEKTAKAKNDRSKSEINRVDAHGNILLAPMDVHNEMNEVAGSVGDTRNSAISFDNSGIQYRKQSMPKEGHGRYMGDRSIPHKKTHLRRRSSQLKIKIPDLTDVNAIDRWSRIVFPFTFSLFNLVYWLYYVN
UniProt P63138: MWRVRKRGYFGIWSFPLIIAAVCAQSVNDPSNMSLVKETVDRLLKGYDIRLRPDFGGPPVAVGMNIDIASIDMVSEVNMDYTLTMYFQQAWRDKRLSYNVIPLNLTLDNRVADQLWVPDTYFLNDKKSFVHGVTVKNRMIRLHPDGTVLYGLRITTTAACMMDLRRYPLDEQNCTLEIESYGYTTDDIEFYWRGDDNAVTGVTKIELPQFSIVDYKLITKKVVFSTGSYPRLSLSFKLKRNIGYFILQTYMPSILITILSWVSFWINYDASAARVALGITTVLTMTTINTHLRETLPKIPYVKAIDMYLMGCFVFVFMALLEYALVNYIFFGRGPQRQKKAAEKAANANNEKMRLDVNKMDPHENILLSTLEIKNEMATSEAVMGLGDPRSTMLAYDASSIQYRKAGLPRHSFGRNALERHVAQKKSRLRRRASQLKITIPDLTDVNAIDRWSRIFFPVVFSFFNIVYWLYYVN

In ChEMBL document CHEMBL1122654, “Phosphorus analogues of gamma-aminobutyric acid, a new class of anticonvulsants” (J Med Chem, 1984):

Columns and labels:
[1] = biological target: GABA-A receptor; anion channel (Rattus norvegicus) (UniProt O09028+P15431+P18506+P18508+P19969+P20236+P23574+P23576+P28471+P28473+P30191+P62813+P63079+P63138+Q91ZM7+Q9ES14); assay: Displacement of [3H]-GABA from Gamma-aminobutyric acid A receptor binding sites in brain homogenates (relative to 1 mM GABA) at 100 uM; format: tissue-based
Summary of the method: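 Male Sprague-Dawley rat brain, frozen, homogenized in 50 mM Tris-citrate (pH 7.1 at 4 °C). Membranes treated with 0.05% Triton X-100 for 30 min at 37 °C and resuspended at 0.5–1.0 mg/mL protein. Incubated with 8 nM [3H]GABA for 5 min at 4 °C, stopped by centrifugation, and counted by scintillation. Test concentration 100 µM. Expressed as percent of the inhibition given by 1 mM GABA. Mean of two experiments, each in triplicate.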

Mus musculus [2] = assay: In vivo anticonvulsant activity against electric shock induced seizures(MES) in mice 0.5 hr after ip administration; active at 600 mg/kg; format: functional, organism-based; set-up: dose 600 mg/kg
Mus musculus [3] = assay: In vivo anticonvulsant activity against pentylene tetrazole seizure threshold(SMC) in mice 0.5 hr after sc administration; inactive at 600 mg/kg; format: functional, organism-based; set-up: dose 600 mg/kg
Mus musculus [4] = assay: In vivo anticonvulsant activity against pentylene tetrazole seizure threshold(SMC) in mice 0.5 hr after sc administration; active at 300 mg/kg
Mus musculus [5] = assay: In vivo anticonvulsant activity against electric shock induced seizures(MES) in mice 4 hr after ip administration; no activity observed at 600 mg/kg.

CCOP(=O)(NCCN)OCC
inhibition [1]: < 10% | Anticonvulsant activity (Mus musculus [2]): Active | Anticonvulsant activity (Mus musculus [3]): inactive | Anticonvulsant activity (Mus musculus [4]): Active | Anticonvulsant activity (Mus musculus [5]): inactive

Calls of active or inactive are those of the source.
